# Data: patent US20230321106A1, “USE OF TOPICAL BRAF INHIBITOR COMPOSITIONS FOR TREATMENT OF EPIDERMAL GROWTH FACTOR RECEPTOR DOWNSTREAM EFFECTORS - INDUCED CUTANEOUS REACTIONS” (Lutris Pharma Ltd., priority 2020, published 2023)
# Test system: phosphorylated ERK1/2 (MAPK pathway) in HKGS-activated HEKa cells
# Experiment: Reversal of EGFR inhibitor-mediated pERK inhibition in HKGS-activated HEKa cells, Western blot
# Type: cell-based, human
# Conditions: HKGS plus cetuximab 50 μg/mL, two hours
# Description: Primary HEKa, isolated from adult skin of a single donor and cryopreserved at the end of primary culture (Gibco catalog number C0055C, Thermo Fisher Scientific, Waltham, MA), were cultured in T25 flasks at 37° C., 5% CO2 in growth medium (Epilife™ CF Kit, Gibco) supplemented with 60 μM calcium (Gibco) and HKGS (Gibco). After at least three passages, cells were harvested with trypsin when flask reached 70-80% confluence, and seeded in 10 cm culture dishes (250,000 cells/dish) in 9 ml of growth medium overnight. To analyze the effect of HKGS or a BRAF inhibitor on pERK, cells were starved for 2.5 hours in 5 mL of starvation medium without HKGS, and then individual plates were incubated for two hours with DMSO 0.1%, HKGS, vemurafenib 0.3 μM (0.146 μg/mL), or LUT014 0.3 μM (0.158 μg/mL). To analyze the effects of LUT014 to re-activate pERK in HKGS-activated HEKa cells cultured in an EGFR inhibitor, cells were seeded in 60 mm dishes (120,000 cells/dish) in 4 ml growth medium. […] The signals of phosphorylated ERK1/2 and total ERK2 were quantified using ImageJ software and the phosphorylated ERK1/2/total ERK2 ratio was calculated. For the quantification, equal sized rectangles were drawn around the bands of the phosphorylated ERK1/2 and the total ERK2 and the pixels in each rectangle were measured.
substance,measurement,value
cetuximab,HKGS stimulation of the MAPK pathway (pERK),partially inhibited
